# Reference: US4762820A, “Therapeutic treatment for congestive heart failure” (Trustees of Boston University, priority 1986, dated 1988)
# Chains of the proteins cited; added tags and fusions are not shown.
# UniProt P37288, whole entry: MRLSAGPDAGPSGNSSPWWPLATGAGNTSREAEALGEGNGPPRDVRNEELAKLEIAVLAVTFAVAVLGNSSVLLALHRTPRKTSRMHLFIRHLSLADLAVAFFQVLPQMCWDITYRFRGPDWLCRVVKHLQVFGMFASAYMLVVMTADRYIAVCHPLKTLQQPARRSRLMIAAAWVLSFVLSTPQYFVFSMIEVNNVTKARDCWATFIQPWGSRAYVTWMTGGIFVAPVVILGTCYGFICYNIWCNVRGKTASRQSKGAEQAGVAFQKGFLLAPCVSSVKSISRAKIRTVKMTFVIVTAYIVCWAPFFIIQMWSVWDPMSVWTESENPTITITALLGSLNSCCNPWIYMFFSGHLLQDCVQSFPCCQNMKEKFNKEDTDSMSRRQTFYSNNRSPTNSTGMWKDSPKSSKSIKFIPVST
# How the values were obtained:
# [1] = target: T1, vascular V1 receptors (Homo sapiens, UniProt P37288); assay: Hemodynamic response to the AVP antagonist in patients with chronic congestive heart failure; format: in vivo
# T1 construct: from tissue; host or cells: vasculature of living human patients (in vivo)
# [2] = target: T1, vascular V1 receptors; details: cited from earlier work
# [3] = group of ten patients as a whole
# [4] = mean ± SEM, all 10 patients, after 0.5 mg i.v.
# [5] = three patients with vasopressin above normal, 0.5 mg i.v.
substance,measurement,setting,value
"[1-(β-mercapto-β,β-cyclopentamethylenepropionic acid), 2-(O-methyl)tyrosine]arginine vasopressin [AVP Antagonist]",cardiac index or stroke volume index,[1]; [3],no significant changes
same,"systolic, diastolic or mean blood pressure, or other pressures",[1]; [3],no significant change
same,BP (mean blood pressure),[1]; [4],88.5 ± 3.2 mmHg
same,CI (cardiac index),[1]; [4],2.1 ± 0.2 1/min/2^2
same,HR (heart rate),[1]; [4],89.0 ± 4.4 BPM
same,LVFP (left ventricular filling pressure),[1]; [4],24.5 ± 2.3 mmHg
same,PAP (mean pulmonary artery pressure),[1]; [4],37.1 ± 2.2 mmHg
same,PAR (pulmonary arteriolar resistance),[1]; [4],280 d.s.c.^-5
same,RAP (right atrial pressure),[1]; [4],10.0 ± 2.3 mmHg
same,SVI (stroke volume index),[1]; [4],24.6 ± 2.6 m/m^2
same,SVR (systemic vascular resistance),"[1]; mean, all 10 patients, after 0.5 mg i.v.",1810 d.s.c.^-5
same,change in systemic vascular resistance and cardiac index,"[1]; remaining seven patients, 0.5 mg i.v.",absence of meaningful change
same,"clinical improvement, share of persons afflicted",[1]; ten patients with congestive heart failure,clinically signficant improvement in thirty percent
same,cardiac index,[1]; [5],increased
same,systemic vascular resistance,[1]; [5],declined
same,time of maximum effect after administration,"[1]; three responding patients, 0.5 mg i.v.",approximately 30 minutes
same,blood pressure,[2]; normally hydrated healthy human subjects,did not alter blood pressure
same,blood pressure,"[2]; sodium-loaded patients with end-stage renal disease, plasma AVP above normal",decrease the blood pressure

# Where two headings read alike, the source gives them in different places.
